Laboratory results as given in patent US8318741B2, “Therapeutic compositions and methods” (The Texas A & M University System, priority 2005, dated 2012).

Key:
[1] = test system: ocular hypertensive rabbit eyes; test: Choroidal blood flow in ocular hypertensive rabbit eyes (colored microspheres); assay type: in vivo, New Zealand white rabbits
[2] = test system: rat eyes; test: Retinal function recovery after ischemic insult in rat eyes (ERG b-wave); settings: N-Nitropyrazoles and C-Nitropyrazoles, 10 mg/kg ip
[3] = test system: choroidal neovascularization in rat eyes; test: CNV formation in rat eyes after laser induction (fluorescein angiography)

Question: What does the source list for `O=[N+]([O-])n1cc(Br)cn1`?
Answer: Choroidal Blood Flow, 30 min ([1]; N-nitro-azoles and C-nitropyrazoles, 50 μl, 1% topically, 30 min, vehicle controls at 100%, mean ± SD, N = 6): 105.8 ± 30.1 %; Choroidal Blood Flow, 60 min ([1]; N-nitro-azoles and C-nitropyrazoles, 50 μl, 1% topically, 60 min, vehicle controls at 100%, mean ± SD, N = 6): 83.8 ± 11.3 %; Choroidal Blood Flow, 120 min ([1]; N-nitro-azoles and C-nitropyrazoles, 50 μl, 1% topically, 120 min, vehicle controls at 100%, mean ± SD, N = 6): 153.3 ± 51.5 %; Choroidal Blood Flow, 180 min ([1]; N-nitro-azoles and C-nitropyrazoles, 50 μl, 1% topically, 180 min, vehicle controls at 100%, mean ± SD, N = 6): 112.5 ± 34.6 %; Onset / latent period of the increase of choroidal blood flow ([1]; after drug administration): 30 min; Retinal Function Recovery After Ischemic Insult, Treated ([2]; b-wave recovery after 30 min ischemia, Mean ± SD, N = 6): 58.6 ± 21.4 %; Retinal Function Recovery, Net increase (%) ([2]; treated versus control): 67.4%; Inhibition of CNV formation ([3]; 20 mg/kg i.p. once a day for 4 weeks, eight laser lesions): marked inhibition of the CNV formation; Inhibition of CNV formation ([3]; at various dose levels, AMD rat model): potent inhibition of CNV formation
